Test: soluble on expression in E. coli; label from the status in PepcDB or PDB records

## KSKLPKPVQDLIKMIFDVESMKKAMVEYEIDLQKMPLGKLSKRQIQAAYSILSEVQQAVSQGSSDSQILDLSNRFYTLIPHDFGMKKPPLLNNADSVQAKVEMLDNLLDIEVAYSLLRGGSDDSSKDPIDVNYEKLKTDIKVVDRDSEEAEIIRKYVKNTHATTHNAYDLEVIDIFKIEREGECQRYKPFKQLHNRRLLWHGSRTTNFAGILSQGLRIAPPEAPVTGYMFGKGIYFADMVSKSANYCHTSQGDPIGLILLGEVALGNMYELKHASHISKLPKGKHSVKGLGKTTPDPSANISLDGVDVPLGTGISSGVNDTSLLYNEYIVYDIAQVNLKYLLKLKFNFKT
  soluble on expression in E. coli: soluble

From the DeepSol protein solubility set
